Protein sequences, listed by entry. Tags and fused reporters are not part of them. Lines headed by an entry give the natural chain unless they say otherwise; changes in a name come on top.
UniProt P07339: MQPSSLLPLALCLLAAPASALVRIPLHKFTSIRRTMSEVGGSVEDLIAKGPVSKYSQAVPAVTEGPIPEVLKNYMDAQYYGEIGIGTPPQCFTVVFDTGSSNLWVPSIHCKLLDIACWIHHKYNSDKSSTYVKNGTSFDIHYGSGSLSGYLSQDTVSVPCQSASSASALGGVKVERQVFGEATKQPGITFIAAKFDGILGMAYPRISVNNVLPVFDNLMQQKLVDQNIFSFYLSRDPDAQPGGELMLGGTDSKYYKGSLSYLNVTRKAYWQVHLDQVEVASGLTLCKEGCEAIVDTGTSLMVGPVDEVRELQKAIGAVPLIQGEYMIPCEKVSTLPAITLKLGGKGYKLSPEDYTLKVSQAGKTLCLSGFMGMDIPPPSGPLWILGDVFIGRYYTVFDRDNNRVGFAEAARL

According to article PMC7339583 (Alzheimer's Research & Therapy, 2020):

Columns and labels:
[1] = biological target: Cathepsin D (purified human CatD, Enzo Life Sciences) (human) (UniProt P07339); assay: SPR; Biacore S51, CM5 chip; CatD amine-coupled to the chip; Aβ peptides flowed in 50 mM Na-citrate, 200 mM NaCl, 1 mM EDTA, 2 mM DTT, 0.005% Tween-20, pH 4.5; triplicate, 3-fold dilution series beginning at […]; simple 1:1 interaction model
[2] = biological target: Cathepsin D (purified human CatD, Enzo Life Sciences) (human) (UniProt P07339)
[3] = biological target: Cathepsin D (purified human CatD, Enzo Life Sciences) (human) (UniProt P07339); remark: listed apart in the source
[4] = biological target: Cathepsin D (purified human CatD, Enzo Life Sciences) (human) (UniProt P07339); remark: listed apart in the source

Substance | Kd [1] | KM of degradation of monomeric Aβ40 by CatD at pH 4.0, Aβ quantified by ELISA [2] | inhibition of CatD activity (fluorogenic substrate) by 1 μM peptide [3] | IC50 of inhibition of CatD activity (nominal ~ 1 nM CatD), fluorescence dequenching assay with a fluorogenic substrate [4]
human amyloid β-protein 1-40 (monomeric human Aβ40) (from UniProt P05067 672-711) (peptide) | > 333 nM | 1.51 μM | – | –
α-secretase-derived p3 fragment of APP ending at position 42 (Aβ(17–42)) (peptide) | – | – | > 90% | –
human amyloid β-protein 1-42 (monomeric human Aβ42) (from UniProt P05067 672-713) (peptide) | – | – | 90% | 0.96 nM
